# Measured affinities in a library of Ab-14 heavy chain variants

All variants were tested on one target, the spike HR2 peptide PDVDLGDISGINAS (SARS-CoV-2).

Parent scFv Ab-14: VH joined to VL by a (GGGGS)3 linker. Changes lie in the heavy chain CDRs alone.
VH: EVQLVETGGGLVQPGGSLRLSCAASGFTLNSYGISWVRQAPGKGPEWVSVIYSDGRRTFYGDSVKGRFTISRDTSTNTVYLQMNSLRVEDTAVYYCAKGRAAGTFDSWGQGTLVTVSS
VL: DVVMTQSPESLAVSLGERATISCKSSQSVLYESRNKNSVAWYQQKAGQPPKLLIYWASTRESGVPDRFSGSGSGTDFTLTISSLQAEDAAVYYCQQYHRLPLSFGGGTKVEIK

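These sequences belong to a second round, designed from the earlier measurements on random variants of the parent. Their group label is 14H_Rand (Rand: our label for a block that the file lists under HC and that is probably the random mutants of the ten best first-round binders). The assay is AlphaSeq: two haploid yeast populations carry antibody and antigen on their surface. Binding brings cells together so that they mate, and sequencing counts the barcode pairs among the diploids. The ratio of observed to expected reads was calibrated, replicate by replicate, on BCL2-family standards whose Kd was known from biolayer interferometry. Mating was done six times.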

The parent's heavy chain CDRs are GFTLNSYGIS, VIYSDGRRTFYGDSVK, GRAAGTFDS; each variant's own CDRs replace them letter for letter. Affinities are written as log10 Kd with Kd in nM; a lower number is a better binder. A mean of the replicates is given; it leaves out those without a signal. "nd" marks a missing value. The strain was present, yet no cells mated with the target were sequenced in that replicate, which points to weak or no binding. Values of this round are not directly comparable with the first-round values of the same sequences.

GTTLNSYGIS, VIYSDGRRTFYSDSVK, GRAGGTFDS: 0.93, 1.24, 2.33, 0.95, 0.59, 1.47 (mean 1.25; controls 0 of 18).
GFTLNEYGIS, VIYSDGRRTFYGDSTK, GRAAVTHDQ: nd, nd, nd, nd, nd, nd (controls 0 of 18).
GFTLNDYGIS, VIYSDGRRTFYGDSVK, GRQQLTFIS: nd, nd, nd, nd, nd, nd (controls 0 of 18).
GFTLNDYGIS, VIYSDGRRTLVIDSVK, GRAAGTFDS: nd, nd, nd, 1.57, nd, 1.91 (mean 1.74; controls 1 of 18).
GFTINEYGIS, VIGSDGRRTFYWDSVK, GRAAVTFDQ: nd, nd, nd, nd, nd, nd (controls 0 of 18).
GFTLAEYGIS, VIYSDGRRTFYTDRVK, GEFAGTFDS: nd, nd, nd, nd, nd, nd (controls 0 of 18).
GFTLDSYGIS, VPYSDGRRTFYGDSVK, GRAAGTALS: nd, nd, nd, nd, nd, nd (controls 0 of 18).
GFILNDYGIS, VIYSDGRRTQYIDSVK, GRAAGTFDS: 1.46, nd, nd, 2.31, 1.67, 3.97 (mean 2.35; controls 0 of 18).
GFTLNSAGIS, VIYSDGRRTFYSDSVK, GRAGGTFDS: nd, nd, nd, nd, nd, nd (controls 0 of 18).
GFDLNSYGIS, VICSDGRRTFYGDSVK, GRAAGWFNS: nd, nd, nd, nd, nd, nd (controls 0 of 18).
GFDLNSYGIS, VIYSDGRRTFYGDSVK, GMAAGWFNS: nd, nd, nd, nd, nd, nd (controls 0 of 18).
GFTLNEAGIS, VIYSDGRDTFYTDSVK, FRFAGTFDS: nd, nd, nd, nd, nd, nd (controls 0 of 18).
GFTLNEYGIS, VINSDGNRTFYGDSVK, ARAAVTFDQ: nd, nd, nd, nd, nd, nd (controls 1 of 18).
GFTLDSYGTS, VIYSDGRRTFYGDSVK, GRAAGTALS: nd, nd, nd, 2.60, nd, nd (controls 0 of 18).
GFTLDSYGIS, VIYSDGRRTFYGDSEK, GPAAGTALS: nd, nd, nd, nd, nd, nd (controls 0 of 18).
GFTLNSYGIS, VIYSDGMRTFNSDSLK, GRAGGTFDS: nd, nd, nd, nd, nd, nd (controls 1 of 18).
GFTLNDYGIS, VIYSDKRRTQYIDSVK, GRAAGTFFS: nd, nd, 1.97, nd, nd, nd (controls 1 of 18).
GFTLNSYGIR, VIYADGRRTFYADSVK, GRAAGTNKS: nd, nd, nd, nd, nd, nd (controls 0 of 18).
GFDLNSYGIS, VIYSDGRRCFYGDSVK, GRAAGWFNS: nd, nd, nd, nd, nd, 2.51 (controls 0 of 18).
GFTLHSYGIS, VIYSDGRRTFYGISVK, GRAAGTALS: nd, nd, nd, nd, nd, nd (controls 0 of 18).
GFTLNQYGIS, VIYSDGTRTFYSDSVK, GRAAGFFDS: nd, nd, nd, nd, 2.83, nd (controls 1 of 18).
GFTLNSYGIS, VIYSDGRRTFYSDSVK, GRAHGTFDS: nd, nd, nd, nd, nd, nd (controls 1 of 18).
SFTVNDYGIS, VCYSDGRRTFYGDNVK, GRAALTCIS: nd, nd, nd, nd, nd, nd (controls 0 of 18).
GFTLNDYGIS, VIYSDGRRTQYIDSVK, GRAADTTDS: nd, nd, nd, nd, nd, nd (controls 0 of 18).
GFTLNSYGIS, VIYSDGQRTFYDDSVK, GRLAGTFDS: 1.18, 0.45, -0.08, 0.40, 0.31, 0.49 (mean 0.46; controls 1 of 18).
GFTLNEYGIS, VIYSIGRRTFYTDSVK, GRFAGTFDS: nd, nd, nd, nd, nd, nd (controls 0 of 18).
GFTLNDYGIS, VIYSDGRRTQYIDSVK, GRAAGTFVV: nd, nd, nd, nd, nd, nd (controls 0 of 18).
GFFLNSYGRS, VIGADGRRTFYGDSGK, GRAAGTNKS: nd, nd, nd, nd, nd, nd (controls 0 of 18).
GFTLNSDGIS, VIYADGRRTFGGDSVK, GRAAGTNKS: nd, nd, nd, nd, nd, nd (controls 0 of 18).
GFTLNDYGIS, VIYSDGRRWFYGTSVK, GRAALTFIS: nd, nd, nd, nd, nd, nd (controls 0 of 18).
GFTLNDYGIS, VIYSDGRRTQYKDSVK, GRAACTFDS: nd, nd, nd, nd, nd, nd (controls 0 of 18).
LHTLNSYGIS, VWYSDGRRTFYSDSVK, GRAGGTFDS: nd, nd, nd, nd, nd, nd (controls 0 of 18).
GFTLNSYHIE, VIYSDGRRTFYDDSVK, GQLAGTFDS: nd, nd, nd, nd, nd, nd (controls 0 of 18).
GFTLNDYGIS, VIYSWGRRTQYIDSVK, TPAAGTFDS: nd, nd, 2.59, nd, nd, nd (controls 1 of 18).
GFTLNDYGIS, VIYSDGRRTQYIDSVK, GTAAGTFDS: 1.35, 1.36, 1.64, 2.26, 1.43, 1.76 (mean 1.63; controls 0 of 18).
DFTLNSYGIS, VIYSDGRRTFYDDSVK, GQLAGTFDS: nd, nd, nd, nd, nd, nd (controls 0 of 18).
GFTLNSYGES, VIYATGRRTFYGDSVK, GRAAGTNKS: nd, nd, nd, nd, nd, nd (controls 0 of 18).
GFTLNDMGIS, VIYSDGRRTQYIDSVK, GFANGTFGS: nd, nd, nd, nd, nd, nd (controls 0 of 18).
GVTLNEYGIS, VIYCRGRRTFYGDSVK, GRAAVTFDQ: nd, nd, nd, nd, nd, nd (controls 0 of 18).
GFTFNDYGIS, VIYSDGRRTQYIDSVK, GRAAGTFDS: nd, 1.87, 3.63, 2.09, 2.45, 3.10 (mean 2.63; controls 0 of 18).
GLTLNSYGIS, VIYSDGRRTFYSDSVK, GRAGGTFMS: nd, nd, nd, nd, 4.20, nd (controls 0 of 18).

As a blank, each scFv also met three strains without target: over all heavy chain designs, 1% of these pairings were detected, typically at 2.08 and seldom below 0.84. Also given: how often the same scFv was detected with the empty control strains. The authors' rule: three or more of the six replicates give a measured affinity, fewer mean a poor binder.

Data: MIT Lincoln Laboratory AlphaSeq set, Li et al. 2023, doi:10.1038/s41467-023-39022-2, as distributed in FLAb.